The text below walks through data of ChEMBL document CHEMBL2440077, “Synthesis and antiprotozoal activity of dicationic 2,6-diphenylpyrazines and aza-analogues” (Bioorg Med Chem, 2013).

The assay in a line: Selectivity ratio of IC50 for Trypanosoma brucei rhodesiense STIB900 to IC50 for Plasmodium falciparum K1. Format: functional.

Turning to `N=C(N)c1ccc(-c2cnc(-c3ccc(C(=N)N)cc3)cn2)cc1`, the Ratio IC50 was determined as 45.
